Laboratory results: ChEMBL document CHEMBL1817572, “New, potent, selective, and short-acting peptidic V1a receptor agonists” (J Med Chem, 2011)

Sequences of proteins named here, by UniProt entry; tags and fusion partners are left off.
UniProt P37288, whole entry, looked up: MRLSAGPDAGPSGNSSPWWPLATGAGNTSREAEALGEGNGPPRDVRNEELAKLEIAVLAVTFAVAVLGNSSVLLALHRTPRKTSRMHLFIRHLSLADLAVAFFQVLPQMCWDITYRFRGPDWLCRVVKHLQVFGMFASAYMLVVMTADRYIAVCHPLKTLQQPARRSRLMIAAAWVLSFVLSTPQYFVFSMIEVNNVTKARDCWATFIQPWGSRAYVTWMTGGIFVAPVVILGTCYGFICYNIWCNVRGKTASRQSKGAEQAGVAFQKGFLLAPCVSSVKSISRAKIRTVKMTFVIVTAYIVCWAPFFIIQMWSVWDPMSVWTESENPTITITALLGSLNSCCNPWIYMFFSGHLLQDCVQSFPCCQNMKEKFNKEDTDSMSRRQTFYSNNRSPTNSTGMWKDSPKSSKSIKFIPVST

What was measured:
[1] = target: Vasopressin V1a/V2 (Homo sapiens) (UniProt P30518+P37288); test: Selectivity ratio of EC50 for human vasopressin V2 receptor to EC50 for human vasopressin V1a receptor
[2] = target: Vasopressin V1a receptor (Homo sapiens, UniProt P37288); test: Agonist activity at recombinant human vasopressin V1a receptor expressed in HEK293 cells by luciferase reporter gene assay; type: functional, cell-based
[3] = target: Vasopressin V2 receptor (Homo sapiens, UniProt P30518); test: Agonist activity at recombinant human vasopressin V2 receptor expressed in HEK293 cells by luciferase reporter gene assay; type: functional, cell-based
[4] = species on record: Homo sapiens; test: Selectivity ratio of EC50 for human vasopressin V1b receptor to EC50 for human vasopressin V1a receptor
[5] = species on record: Homo sapiens; test: Selectivity ratio of EC50 for human oxytocin receptor to EC50 for human vasopressin V1a receptor
[6] = target: T1, Oxytocin receptor (Homo sapiens, UniProt P30559); test: Agonist activity at human OT receptor expressed in CHO-K1 cells by luciferase reporter gene assay; type: functional, cell-based
T1 sequence (P30559 whole entry): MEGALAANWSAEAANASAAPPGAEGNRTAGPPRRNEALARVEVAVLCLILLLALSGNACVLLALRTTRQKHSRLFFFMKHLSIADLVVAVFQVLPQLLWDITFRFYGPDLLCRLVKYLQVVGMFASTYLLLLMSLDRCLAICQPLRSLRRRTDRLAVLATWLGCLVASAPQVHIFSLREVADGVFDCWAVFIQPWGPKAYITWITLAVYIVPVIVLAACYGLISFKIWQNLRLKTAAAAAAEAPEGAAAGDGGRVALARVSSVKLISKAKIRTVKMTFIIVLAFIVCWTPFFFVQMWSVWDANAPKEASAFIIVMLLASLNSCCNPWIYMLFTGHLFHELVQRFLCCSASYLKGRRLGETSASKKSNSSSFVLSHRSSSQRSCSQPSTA

[7] = target: T2, Vasopressin V1b receptor (Homo sapiens, UniProt P47901); test: Agonist activity at recombinant human vasopressin V1b receptor expressed in Flp-In-293 cells by luciferase reporter gene assay; type: functional, cell-based
T2 sequence (P47901 whole entry): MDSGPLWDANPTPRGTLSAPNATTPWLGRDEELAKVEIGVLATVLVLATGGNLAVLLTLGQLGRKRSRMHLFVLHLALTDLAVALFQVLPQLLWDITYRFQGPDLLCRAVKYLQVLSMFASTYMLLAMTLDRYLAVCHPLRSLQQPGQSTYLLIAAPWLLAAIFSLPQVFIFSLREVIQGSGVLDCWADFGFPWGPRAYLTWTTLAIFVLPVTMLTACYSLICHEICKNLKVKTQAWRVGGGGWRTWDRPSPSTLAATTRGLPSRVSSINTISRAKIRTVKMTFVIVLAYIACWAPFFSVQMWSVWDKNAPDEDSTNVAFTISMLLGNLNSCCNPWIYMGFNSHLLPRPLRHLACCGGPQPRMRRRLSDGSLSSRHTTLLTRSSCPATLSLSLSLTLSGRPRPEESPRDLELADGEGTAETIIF
Method in brief: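 Reporter gene assays in HEK293 cells transiently cotransfected with V1a (human or rat) or human V2 receptor vector plus NFAT-luciferase (V1a) or CRE-luciferase (V2) reporter; V1b in Flp-In-293 stably expressing receptor, OT in CHO-K1 stably expressing receptor, both transiently transfected with NFAT-luciferase. Two days post-transfection, peptides added for 5 h at 37 °C, lysis with luciferin, luminescence read.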

Ratio EC50 [1] | EC50 [2] | EC50 [3] | Ratio EC50 [4] | Ratio EC50 [5] | EC50 ([6]; cho-k1, read-out: EC50) | EC50 ([6]; read-out: pEC50 (converted)) | EC50 [7] | SMILES
42 | 11 nM | 470 nM | 4 | > 900 | > 10000 nM | > 10000 nM | 44 nM | CC[C@H](C)[C@@H]1NC(=O)[C@H](CC(C)(C)C)NC(=O)[C@@H](N)CSSC[C@@H](C(=O)N2CCC[C@H]2C(=O)N[C@@H](CCN)C(=O)NCC(N)=O)NC(=O)[C@H](CC(N)=O)NC(=O)[C@H](CCC(N)=O)NC1=O
92 | 13 nM | 1200 nM | 19 | > 760 | > 10000 nM | > 10000 nM | 250 nM | CC[C@H](C)[C@@H]1NC(=O)[C@H](CC(C)C)NC(=O)[C@@H](N)CSSC[C@@H](C(=O)N2CCC[C@H]2C(=O)N[C@@H](CCN)C(=O)NCC(N)=O)NC(=O)[C@H](CC(N)=O)NC(=O)[C@H](CCC(N)=O)NC1=O
